Experiments:
Rb/prohibitin = Rb/prohibitin (Homo sapiens, UniProt P06400+P35232); conditions: ELISA, 20 μM
Method: (§1) In vitro library screening assays. Enzyme Linked ImmunoSorbent Assay (ELISA) 96-well plates were coated with 1 μg/mL of a glutathione S-transferase (GST) Raf-1 (1-149aa) overnight at 4° C. Subsequently the plates were blocked and GST Rb at 20 μg/mL was rotated at room temperature (RT) for 30 minutes in the presence or absence of the compounds at 20 micromolar (μM). GST-Rb +/− compounds were then added to the plate and incubated for 90 minutes (min) at 37° C. The amount of Rb bound to Raf-1 was detected by Rb polyclonal antibody (Santa Cruz Biotechnology, Santa Cruz, Calif.) 1:1000 incubated for 60 min at 37° C. Donkey-anti-rabbit-IgG-HRP (1:10,000) was added to the plate and incubated at 37° C. for 60 minutes. The color was developed with orthophenylenediamine (Sigma, St. Louis, Mo.) and the reaction was terminated with 3 molar (M) H2SO4. Absorbance was read at 490 nanometers (nm). To determine disruption of Rb to E2F1, Phb, or HDAC1 the above protocol was used with the exception of coating GST Rb on the ELISA plate and adding the drugs in the presence or absence of GST E2F1, Phb, or HDAC1. […] Prohibitin monoclonal antibody was used at 1:1000 to detect the amount of Rb bound to Prohibitin. For disruption of MEK-Raf-1 binding ELISAs, Raf-1 1 microgram/milliliter (μg/mL) was coated on the plate and GST-MEK (20 μg/mL) was incubated +/− the compounds for 30 minutes at room temperature. Mek1 polyclonal antibody was used at 1:1000 to detect the binding of Raf-1 to Mek1. The IC50 concentrations for the Rb:Raf-1 inhibitors were determined by plotting with Origin 7.5 software (Origin, Northampton, Mass.).

Sequences of proteins named here, by UniProt entry; tags and fusion partners are left off. A change or cut given only in a name is not applied to a line headed by its entry.
UniProt P06400: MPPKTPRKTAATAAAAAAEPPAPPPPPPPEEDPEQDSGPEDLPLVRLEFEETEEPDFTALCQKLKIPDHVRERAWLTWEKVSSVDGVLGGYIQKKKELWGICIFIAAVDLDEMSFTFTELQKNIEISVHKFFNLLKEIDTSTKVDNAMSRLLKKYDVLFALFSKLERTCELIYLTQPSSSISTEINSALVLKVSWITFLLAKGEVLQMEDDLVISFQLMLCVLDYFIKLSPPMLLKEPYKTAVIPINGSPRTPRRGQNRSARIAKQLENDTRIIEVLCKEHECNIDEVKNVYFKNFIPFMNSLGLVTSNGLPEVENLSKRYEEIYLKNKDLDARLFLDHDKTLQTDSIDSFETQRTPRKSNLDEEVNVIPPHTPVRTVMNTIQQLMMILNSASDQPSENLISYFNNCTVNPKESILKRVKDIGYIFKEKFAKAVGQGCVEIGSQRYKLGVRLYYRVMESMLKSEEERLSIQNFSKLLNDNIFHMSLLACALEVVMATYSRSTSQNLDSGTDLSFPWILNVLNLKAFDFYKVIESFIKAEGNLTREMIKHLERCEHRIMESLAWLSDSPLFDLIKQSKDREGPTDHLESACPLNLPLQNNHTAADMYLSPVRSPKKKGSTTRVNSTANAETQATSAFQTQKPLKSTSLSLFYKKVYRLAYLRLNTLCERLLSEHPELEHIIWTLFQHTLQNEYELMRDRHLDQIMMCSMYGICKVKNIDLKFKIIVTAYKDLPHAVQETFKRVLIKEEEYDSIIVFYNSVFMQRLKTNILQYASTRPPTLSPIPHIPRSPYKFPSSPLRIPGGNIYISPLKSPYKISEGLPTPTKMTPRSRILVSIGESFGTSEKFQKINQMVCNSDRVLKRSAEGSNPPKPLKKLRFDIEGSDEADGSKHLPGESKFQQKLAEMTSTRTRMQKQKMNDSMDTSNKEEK
UniProt P35232: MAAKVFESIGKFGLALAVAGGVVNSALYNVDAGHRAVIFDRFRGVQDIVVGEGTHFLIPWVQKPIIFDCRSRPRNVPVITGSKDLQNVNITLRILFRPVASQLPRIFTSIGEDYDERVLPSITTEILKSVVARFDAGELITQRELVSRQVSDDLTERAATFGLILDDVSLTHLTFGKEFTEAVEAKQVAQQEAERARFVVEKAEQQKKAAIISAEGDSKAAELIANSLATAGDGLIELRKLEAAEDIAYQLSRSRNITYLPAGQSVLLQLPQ
UniProt Q13547, whole entry: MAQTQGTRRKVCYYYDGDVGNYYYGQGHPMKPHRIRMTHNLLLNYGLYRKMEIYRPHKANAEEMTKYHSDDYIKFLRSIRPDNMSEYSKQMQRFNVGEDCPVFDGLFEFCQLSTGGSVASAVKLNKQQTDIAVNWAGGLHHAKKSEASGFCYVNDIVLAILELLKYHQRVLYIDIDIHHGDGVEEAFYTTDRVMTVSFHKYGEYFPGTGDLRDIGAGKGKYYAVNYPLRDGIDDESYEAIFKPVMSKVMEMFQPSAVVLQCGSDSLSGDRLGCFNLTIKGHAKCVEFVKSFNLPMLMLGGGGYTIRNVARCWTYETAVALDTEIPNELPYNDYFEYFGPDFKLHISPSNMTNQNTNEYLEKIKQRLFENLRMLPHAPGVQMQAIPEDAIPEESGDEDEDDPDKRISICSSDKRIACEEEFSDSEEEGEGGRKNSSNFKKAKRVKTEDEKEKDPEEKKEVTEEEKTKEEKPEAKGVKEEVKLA
UniProt Q01094: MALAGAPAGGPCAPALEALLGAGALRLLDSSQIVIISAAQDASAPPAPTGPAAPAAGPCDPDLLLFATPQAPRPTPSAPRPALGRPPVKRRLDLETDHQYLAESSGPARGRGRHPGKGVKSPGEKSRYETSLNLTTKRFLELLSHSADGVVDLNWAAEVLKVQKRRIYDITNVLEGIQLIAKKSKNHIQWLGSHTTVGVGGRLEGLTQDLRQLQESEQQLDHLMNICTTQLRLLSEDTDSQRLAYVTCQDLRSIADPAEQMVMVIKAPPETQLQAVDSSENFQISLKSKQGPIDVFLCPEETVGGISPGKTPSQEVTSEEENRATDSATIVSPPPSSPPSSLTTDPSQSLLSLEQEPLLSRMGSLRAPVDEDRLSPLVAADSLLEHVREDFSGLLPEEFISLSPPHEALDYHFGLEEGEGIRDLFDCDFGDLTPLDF

Rb/HDAC1 = Rb/HDAC1 (Homo sapiens, UniProt P06400+Q13547); conditions: ELISA, 20 μM
Method: as §1

Raf-1/Mek = Raf-1/Mek (Homo sapiens, UniProt P04049+Q02750); conditions: ELISA, 20 μM
Method: as §1

Rb-E2F1 = target: T1, Rb-E2F1 (Homo sapiens, UniProt P06400+Q01094); assay: GST ELISA, Rb-E2F1 binding; conditions: 20 μM
T1 construct: made in house
Source text: In vitro library screening assays. […] Absorbance was read at 490 nanometers (nm).

Structure (SMILES) | inhibition of Rb/prohibitin binding / selectivity in words (Rb/prohibitin) | inhibition of Rb/HDAC1 binding / selectivity in words (Rb/HDAC1) | inhibition of Raf-1/Mek association / selectivity in words (Raf-1/Mek) | inhibition of Rb-E2F1 binding / selectivity in words (Rb-E2F1)
Cl.N=C(N)SCc1ccc(Cl)cc1Cl [Compound 3a] | without targeting the binding partners of Rb and Raf-1 | without targeting the binding partners of Rb and Raf-1 | without targeting the binding partners of Rb and Raf-1 | without targeting the binding partners of Rb and Raf-1
N=C(N)SCc1ccc(Cl)cc1Cl [(1), 2,4-dichlorobenzyl carbamimidothioate] | – | – | – | selective for inhibiting Rb:Raf-1 and not Rb-E2F1 binding

From US9656953B2, “Inhibition of cell proliferation” (University of South Florida, priority 2005, dated 2017)
